Consider one substance from patent publication EP0830890A1, “Surfactants for use in liquid/supercritical CO2” (AIR PRODUCTS AND CHEMICALS, INC., priority 1996, dated 1998).

Data set [1] in a line: Water uptake by surfactant/CO2 mixture (phase behavior, cloud point). The data set is classed as physicochemical. As to conditions: Wt% Surfactant in CO2 0.751; 4010 psi 65°C; listed as 20. As to the method:
Utilizing the same phase behavior appartus described in Example 1, a known amount of water was added through a sample loop to a surfactant CO2 mixture of known phase behavior (i.e. its cloud point was first determined). Comparisons were made to water solubilization by pure CO2 and compared to the pure surfactant phase behavior to study the effect the water addition had made, if any, on the measured cloud point for the system.
If the surfactant allowed for the uptake of water, the system would show a single phase at water loadings beyond that normally solubilized by CO2. A cloud point could then be measured for the system, and compared to pure water and pure surfactant phase behavior in CO2.

Data set [2] in a line: Solubility in CO2 by cloud point determination in a variable volume view cell. Particulars: Surfactant Concn. in CO2 3.8330 wt%; 35°C.

In the case of “Ethoxylated 2,4,7,9-Tetramethyl-5-decyn-4,7-diol [AP-420]”, in data set [1], the “Wt% of water uptake” value amounted to 0.553%. Further, the “Pressure Describing Cloud Point Determinations For Surfactant/CO2Concentrations” value in data set [2] stood at 2350.
